Measurements from publication PMC9502400.

Chains of the proteins cited; added tags and fusions are not shown. Residues count along the entry.
UniProt Q00535, whole entry: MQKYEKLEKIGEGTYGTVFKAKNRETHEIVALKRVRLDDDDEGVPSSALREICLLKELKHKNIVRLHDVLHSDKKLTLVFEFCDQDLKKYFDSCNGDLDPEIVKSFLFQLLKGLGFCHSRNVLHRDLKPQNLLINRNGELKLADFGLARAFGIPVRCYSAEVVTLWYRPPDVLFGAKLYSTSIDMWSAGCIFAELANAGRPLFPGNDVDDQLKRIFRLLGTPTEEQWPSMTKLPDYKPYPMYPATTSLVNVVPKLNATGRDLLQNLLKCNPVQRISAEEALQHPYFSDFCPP
UniProt Q15078, 2-307 partner limits assumed: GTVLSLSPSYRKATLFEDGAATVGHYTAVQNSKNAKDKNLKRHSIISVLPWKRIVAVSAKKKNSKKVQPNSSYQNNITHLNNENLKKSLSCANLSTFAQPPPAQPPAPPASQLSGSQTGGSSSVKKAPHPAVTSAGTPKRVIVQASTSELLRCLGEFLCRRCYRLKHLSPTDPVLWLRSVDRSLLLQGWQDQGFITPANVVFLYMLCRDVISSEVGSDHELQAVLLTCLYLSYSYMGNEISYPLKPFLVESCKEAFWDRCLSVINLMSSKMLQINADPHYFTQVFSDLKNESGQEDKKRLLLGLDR

Target: Cdk5 (Cyclin-dependent kinase 5) (Homo sapiens, UniProt Q00535)
Assay: Z'-LYTE fluorescence-based in vitro kinase assay, 10-point dose-response

IC50	Compound
1.27 µM	COCCNc1nc(Nc2ccc(OC)c(OC)c2)nc2[nH]cnc12
3.43 µM	O=C(NCCc1cccnc1)N1CC=C(c2c[nH]c3ncccc23)CC1
